Earlier results, collected in patent US7381523B2, “Methods for identifying compounds for treating diabetes mellitus” (BioCrine AB, priority 2004, dated 2008).

Protein sequences, listed by entry. Tags and fused reporters are not part of them.
UniProt P35346, whole entry, species assumed: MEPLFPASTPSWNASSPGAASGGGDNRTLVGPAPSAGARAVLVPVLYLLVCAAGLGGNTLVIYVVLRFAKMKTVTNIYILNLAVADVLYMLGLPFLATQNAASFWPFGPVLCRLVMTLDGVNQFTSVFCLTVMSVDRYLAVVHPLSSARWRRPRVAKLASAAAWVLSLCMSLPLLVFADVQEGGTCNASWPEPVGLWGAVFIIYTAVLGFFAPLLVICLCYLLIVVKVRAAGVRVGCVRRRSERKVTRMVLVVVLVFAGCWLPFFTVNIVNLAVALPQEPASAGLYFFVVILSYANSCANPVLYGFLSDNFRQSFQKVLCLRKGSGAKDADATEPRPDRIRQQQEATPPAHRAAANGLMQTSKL

Molecular target: SSTR5 (Homo sapiens, UniProt P35346)
Conditions: previous work

Substance: Ser-Ala-Asn-Ser-Asn-Pro-Ala-Met-Ala-Pro-Arg-Glu-Arg-Lys-Ala-Gly-Cys-Lys-Asn-Phe-Phe-Trp-Lys-Thr-Phe-Thr-Ser-Cys [SS-28]
- affinity of SSTR5 relative to SSTR1-4: 10 fold
